Earlier results, collected in US20070026026A1 (priority 2005, published 2007).

Biological target: AT1 receptor (Homo sapiens, UniProt P30556)
Conditions: cited from earlier work

For `CCCCc1nc(Cl)c(CO)n1Cc1ccc(-c2ccccc2-c2nn[nH]n2)cc1` [losartan], the “greater affinity for the AT1 receptor than for the AT2 receptor” value (AT1 versus AT2) is given as “about 1000 fold” and the “type of inhibition of the AT1 receptor” value (in vitro binding studies) is given as “reversible, competitive inhibitor”.
